High-throughput results (PubChem)
DT40 TDP1 no CPT: qHTS for Inhibitors of human tyrosyl-DNA phosphodiesterase 1 (TDP1): qHTS in cells in absence of CPT. DT40 Tdp1-/- hTDP1 cells, no CPT, ATP luminescence, 48 h. AID 686978, 2013. Potency, µM (doses to about 46.2 µM), for inactives: top-dose activity change, negative = growth inhibition, most hits filed as inhibitors. 420,000 tested, 15% active; further: potency means the concentration at half of the fitted maximal effect; on the % scale 0 is the no-effect control and ±100 the full control effect; nearly all actives have a fitted effect of over 55% in size
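No-CPT arm: Tdp1-/-;hTDP1 DT40 cells (400/well) plus compounds, incubated ≥48 hr at 37 °C. Readout CellTiter-Glo luminescence.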
uPA generation: cell surface uPA generation inhibition | 330,000 tested, 0.31% active | Potency, µM (highest dose often 38.3 µM), without a hit: at the top dose activity change, negative = inhibition, most hits filed as inhibitors | cell surface uPA generation assay, qHTS; active means well fitted inhibition curve with a large enough effect; inconclusive means small, poorly fitted or top-dose-only effect; inactive means no such curve, though single readings can be large or run the other way; tested in mouse RAW 264.7 cells; further: potency means the concentration at half of the fitted maximal effect; on the % scale 0 is the no-effect control and ±100 the full control effect; nearly all actives have a fitted effect of over 55% in size
DT40 TDP1 CPT: growth inhibition of DT40 Tdp1-/-;hTDP1 cells with camptothecin (screen for TDP1 inhibitors); chicken DT40 Tdp1-/-;hTDP1 cells + 20 nM CPT, ATP luminescence, 48 h; Potency, µM (highest dose often 46.2 µM), for inactives: top-dose activity change, negative = growth inhibition, actives largely listed as inhibitors; 420,000 tested, 12% active; AID 686979; further: potency means the concentration at half of the fitted maximal effect; on the % scale 0 is the no-effect control and ±100 the full control effect; nearly all actives have a fitted effect of over 55% in size
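Chicken DT40 Tdp1-/- cells complemented with human TDP1, 400 cells/well, exposed to compounds plus 20 nM camptothecin for at least 48 h at 37 C; viability read as ATP content by CellTiter-Glo luminescence.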
TDP1 block: blocks human tyrosyl-DNA phosphodiesterase 1 | Q9NUW8 | recombinant TDP1, AlphaScreen DNA substrate cleavage | Potency, µM (series often up to 130 µM), without a hit: at the highest dose activity change, negative = inhibition, actives largely listed as inhibitors | 350,000 tested, 0.28% active; further: potency means the concentration at half of the fitted maximal effect; on the % scale 0 is the no-effect control and ±100 the full control effect; nearly all actives have a fitted effect of over 40% in size
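Steps: enzyme plus compound, 15 min RT; add biotin/phosphotyrosine-FITC oligonucleotide (15 nM final), react 5 min; add donor/acceptor beads (10 ug/ml final), 10 min; read AlphaScreen. Tdp1 at 1 nM final.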
miR-21 reporter: raises the signal of a miR-21 reporter. Potency, µM (highest dose often 38.3 µM), without a hit: top-dose reporter change, positive = more light. 340,000 tested, under 10 active. HeLa miR-21 FLuc reporter, luciferase, 48 h; active = well fitted rising curve with a large enough effect; inconclusive = small, poorly fitted or top-dose-only effect; inactive = no such curve, though single readings can be large or run the other way;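 further: % of control where 0% means no effect; miR-21 action dims this reporter so a rising signal means less miR-21 action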
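Luminescence from a firefly luciferase reporter carrying a miR-21 binding site downstream, stably expressed under a CMV promoter in HeLa cells that make miR-21 endogenously, reports miRNA modulation after 48 h compound exposure up to approximately 40uM final.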
An asterisk follows results filed as active; ? = inconclusive; . = no result given; [ ] = dose if it differs, or a comment. Sampled rows, rich in hits. Any-hit rate of the full collection: about 16%. Unless noted, the call rests on the fitted dose curve; in most records, active means well fitted curve in the direction sought with a large enough effect; inconclusive means small, poorly fitted or top-dose-only effect, or another doubt; inactive means no such curve, though single readings can be large; an effect the other way counts as inactive or inconclusive.

Each structure is followed by: DT40 TDP1 no CPT, uPA generation, DT40 TDP1 CPT, TDP1 block, miR-21 reporter
COc1ccc(N2CCc3c(C)nc4c(OC)cccc4c32)cc1
 : 2.91µM*, -17.6%, 4.61µM*, 4.8%, ?
COCCOC(=O)c1c(NC(=O)COC(=O)Cc2cccc(OC)c2)sc(C(N)=O)c1C
 : -6.2%, 11.4%, -15.8%, -0.8%, -1.5%
COc1ccc(NC(=O)CSc2ccc(-c3sc(C)nc3C)nn2)cc1OC
 : 8.2µM*, -6.3%, ?, 6.4%, 13.7%
Cc1nc(-c2ccccc2)sc1-c1ccc(SCC(=O)Nc2ccc(F)cc2F)nn1
 : ?, ., -27.7%, 2.6%, -13.4%
Cc1cccc(NC(=O)CSc2ccc(-c3sc(-c4ccccc4)nc3C)nn2)c1C
 : ?, ., ?, 10.3%, 2.2%
CC(=O)c1ccc(NC(=O)CSc2ccc(-c3sc(C)nc3C)nn2)cc1
 : ?, -8.7%, 13µM*, 2.6%, 14.0%
COc1ccc(NC(=O)CSc2nc(C)cs2)cc1OC
 : -29.7%, -0.6%, -9.3%, 3.0%, -4.5%
CCOC(=O)c1ccccc1NC(=O)CSc1ccc(-c2sc(C)nc2C)nn1
 : 11.6µM*, ., 14.6µM*, 11.0%, -4.6%
COc1cc(NC(=O)CSc2ccc(-c3sc(C)nc3C)nn2)cc(OC)c1
 : 18.4µM*, ., 20.6µM*, 0.0%, 11.7%
COC(=O)[C@]1(Cc2ccccc2)N[C@H](CN(C)C(=O)COc2ccccc2)[C@@H]2C(=O)N(C)C(=O)[C@@H]21
 : -24.0%, 16.2%, -13.2%, 0.3%, .
COc1cc(OC)c(OC)cc1/C=N/NC(=O)c1ccc(CSc2nc(C)cc(C)n2)cc1
 : -20.7%, 2.4%, -11.1%, ., .
CC1(C)CC(=O)C2=C(C1)c1c(ccc3ccccc13)NC2c1ccc(OCC(=O)O)cc1 (configuration not stated)
 : ?, 18.9%, 0.7%, ., 3.6%
CC1(C)CC(=O)C2=C(C1)c1c(ccc3ccccc13)NC2c1ccc(Br)o1 (configuration not stated)
 : 20.6µM*, -12.6%, ?, 2.0%, -1.4%
CCOC(=O)N1CCN(c2c(NCc3ccc(N(C)C)cc3)c(=O)c2=O)CC1
 : -20.1%, -0.1%, -29.5%, 2.6%, -0.2%
CCOC(=O)N1CCN(c2c(NCc3ccccc3Cl)c(=O)c2=O)CC1
 : 29.1µM*, ?, 18.4µM*, ., 25.5%
O=C1CCCN2N=C(SCC(=O)Nc3ccc(F)cc3F)SC2=N1
 : ?, -2.5%, ?, 0.6%[0.0935 µM], -6.8%
c1ccc(-c2nc(-c3ccco3)n3ccccc23)cc1
 : ?, -4.7%, 10.3µM*, 5.3%, 2.9%
CCn1c(-c2ccco2)nc2ccccc21
 : ?, -5.5%, -10.6%, 10.0%, -29.3%
Cc1ccc(-c2cc(C(=O)Nc3sc4c(c3C(=O)NCc3ccco3)CCC4)[nH]n2)c(O)c1
 : ?, 7.7%, -12.7%, -5.4%, -0.9%
COCCCNC(=O)c1c(NC(=O)Cc2coc3cc(C)ccc23)sc2c1CCCC2
 : 16.4µM*, ., 16.4µM*, 7.4%, 19.7%

Brought forward from above: 4 entries; new compounds follow.
Each structure is followed by: DT40 TDP1 no CPT, uPA generation, DT40 TDP1 CPT, TDP1 block, miR-21 reporter
c1ccc(-c2nc(-c3ccco3)n3ccccc23)cc1
 : ?, -4.7%, 10.3µM*, 5.3%, 2.9%
CCn1c(-c2ccco2)nc2ccccc21
 : ?, -5.5%, -10.6%, 10.0%, -29.3%
Cc1ccc(-c2cc(C(=O)Nc3sc4c(c3C(=O)NCc3ccco3)CCC4)[nH]n2)c(O)c1
 : ?, 7.7%, -12.7%, -5.4%, -0.9%
COCCCNC(=O)c1c(NC(=O)Cc2coc3cc(C)ccc23)sc2c1CCCC2
 : 16.4µM*, ., 16.4µM*, 7.4%, 19.7%
CCNC(=O)c1c(NC(=O)c2cc(-c3cc(C)ccc3O)n[nH]2)sc2c1CCCC2
 : 16.4µM*, 0.2%, ?, 0.0%, -1.3%
CNC(=O)c1c(NC(=O)Cc2coc3ccc(OC)cc23)sc2c1CCCC2
 : 20.6µM*, ., 16.4µM*, 0.0%, 11.2%
CCNC(=O)c1c(NC(=O)Cc2coc3cc(C)ccc23)sc2c1CCCC2
 : 18.4µM*, ., 11.6µM*, 3.7%, -7.7%
CCC(=O)N[C@@H]1C=C[C@@H](CC(=O)NCc2ccccc2F)O[C@@H]1CO
 : -0.8%, ., 6.0%, ., .
CC(=O)C1=C(O)C(=O)N(CCc2ccccc2)C1c1ccccc1[N+](=O)[O-] (configuration not stated)
 : -8.2%, -8.7%, 20.8%, -2.7%, -1.4%
Cc1ccc(-c2csc(N3CCN(c4cc5c(cc4Cl)nc(-c4ccncc4)n5CCN4CCCCC4)CC3)n2)cc1
 : ?, 4.2%, ?, ., 0.6%
C[C@@H]1COc2cc(N3CCSCC3)ccc2S(=O)(=O)N1
 : -18.0%, ., -4.7%, ., .
Cc1nc2ccccn2c1-c1ccnc(=S)[nH]1
 : 23.1µM*, 0.6%, 5.8µM*, 2.6%, 3.2%
c1ccc2c(c1)OCC(CN1CCCCC1)O2 (configuration not stated)
 : -5.0%, ., 8.4%, 6.7%, .
Cc1cc2nc(C3CCN(CC4COc5ccccc5O4)CC3)[nH]c2cc1C (configuration not stated)
 : 8.2µM*, ?, 7.31µM*, 0.0%, 18.1%
N#C/C(=C\c1ccc(OCc2ccc(Cl)cc2)cc1)C(=O)Nc1cccc(C(=O)O)c1
 : -1.3%, 0.4%, 5.7%, 35.5µM*, -40.4%
O=C(O)c1cccc(NC(=O)c2ccc(COc3ccc(Cl)cc3)cc2)c1
 : 18.2%, 4.9%, 2.2%, ., -22.6%
CCOc1cc(/C=C(\C#N)C(=O)Nc2cccc(C(=O)O)c2)ccc1OCc1ccc(Br)cc1
 : 29.1µM*, 0.1%, ?, 14.1µM*, -4.0%
CCCCC/C=C\C\C=C/C=C/C=C/[C@@H](O)[C@@H](O)CCCC(=O)O
 : ., ., ., 6.2%, .
CCOC(=O)C1=C(c2ccccc2)NC(N)=NC1c1ccc(OCc2ccc(C(=O)OC)cc2)cc1 (configuration not stated)
 : 13µM*, -2.5%, ?, 5.5%, ?
O=C(c1ccccc1Cl)N1CCN(S(=O)(=O)N2CCCCC2)CC1
 : -14.7%, -8.0%, 2.1%, 13.4%, -0.2%
Cc1cc(C)c(NC(=O)c2cn3c4c(c(N5CCN(C)CC5)c(F)cc4c2=O)OCC3C)c(C)c1 (configuration not stated)
 : ?, 8.8%, 18.4µM*, 2.7%, 0.6%
CCn1cc(C(=O)NCC2CCCO2)c(=O)c2cc(F)c(N3CCN(C)CC3)cc21 (configuration not stated)
 : -20.1%, 4.1%, 20.4%, -2.0%, -4.0%
COc1ccc(CC(=O)OCC(=O)Nc2cccnc2Cl)cc1OC
 : -5.3%, -1.1%, -6.1%, 0.0%, -1.4%
O=C(NCc1ccccc1)C1CCN(S(=O)(=O)c2cc([N+](=O)[O-])ccc2Cl)CC1
 : -31.2%, -0.1%, ?, -1.1%, -1.3%
CC(NC(=O)C1CCN(S(=O)(=O)c2cc([N+](=O)[O-])ccc2Cl)CC1)c1ccccc1 (configuration not stated)
 : ?, -0.6%, ?, 3.4%, -4.2%
CN(Cc1ccccc1)C(=O)C1CCN(S(=O)(=O)c2cc([N+](=O)[O-])ccc2Cl)CC1
 : 23.1µM*, -16.3%, ?, 13.7%, 1.6%
Cc1ccc2nc(NC(=O)C3CCN(S(=O)(=O)c4cc([N+](=O)[O-])ccc4Cl)CC3)sc2c1
 : 6.51µM*, -7.0%, 9.2µM*, -5.5%, 7.5%
Cc1ccc(NC(=O)C2CCN(S(=O)(=O)c3cc([N+](=O)[O-])ccc3Cl)CC2)nc1
 : 14.6µM*, ?, 16.4µM*, -6.9%, .
